Values joined by “and” are separate entries in the source; they are usually repeats but may differ in a detail not shown here. Equal values may be shown once.

For experiment [1], the target named is MmPDE5A1 (Mus musculus cGMP-specific phosphodiesterase 5A, isoform A1), produced in K. lactis wild type strain CBS2359 (Mus musculus) (UniProt Q8CG03). The experiment is described as follows: native gel or EMSA; native PAGE, 5% non-denaturing gel, Tris/glycine pH 8.3, 4 C, 1.0 ug purified protein, Coomassie; pre-incubated at 30 C up to 3 h with or without DTT, cGMP, sildenafil or diamide.

Experiment [2] concerns the target MmPDE5A1 produced in the K. lactis ragx1 mutant (Mus musculus) (UniProt Q8CG03). The experiment is described as above.

As usually defined, the stoichiometry N is the number of molecules, sites or subunits per partner or assembly. Consider “MmPDE5A1 (Mus musculus cGMP-specific phosphodiesterase 5A, isoform A1), produced in K. lactis wild type strain CBS2359 (from UniProt Q8CG03 1-865) (enzyme)”, for which, in experiment [1], the stoichiometry N was 4 and 2.

“MmPDE5A1 produced in the K. lactis ragx1 mutant (from UniProt Q8CG03 1-865) (enzyme)”: the stoichiometry N in experiment [2] was determined as 2.

Source of the values: PMC9368758, “Cellular Redox Metabolism Is Modulated by the Distinct Localization of Cyclic Nucleotide Phosphodiesterase 5A Isoforms” (International Journal of Molecular Sciences, 2022).
